Our source for the activity change, negative = inhibition values is PubChem BioAssay AID493248 (Broad Institute, 2011).

Sequences of proteins named here, by UniProt entry; tags and fusion partners are left off.
UniProt P55789, whole entry: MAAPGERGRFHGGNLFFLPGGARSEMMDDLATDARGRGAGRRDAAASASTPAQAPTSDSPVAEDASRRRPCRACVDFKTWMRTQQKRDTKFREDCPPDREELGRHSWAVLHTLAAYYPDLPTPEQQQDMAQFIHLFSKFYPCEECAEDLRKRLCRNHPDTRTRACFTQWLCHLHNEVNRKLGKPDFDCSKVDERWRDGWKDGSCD

The list shows a part of the results. Entries with a potency or affinity are not part of this list. Records with an inconclusive call do not appear. No rule for the calls is given here.

This assay has as its target FAD-linked sulfhydryl oxidase ALR (Homo sapiens) (UniProt P55789). The assay is described as follows: inhibitors of human ALR sulfhydryl oxidase, dose response, biochemical, H2O2 detection, luminescence, cherry-pick (AID 493248). The following applies: purified ALR, DTT oxidation, H2O2 HRP-luminol luminescence; at 10 µM (top of the series).
Turning to `CN(C)c1ccc(C(=O)NCC2(N3CCCCC3)CCCCC2)cc1`, the activity change, negative = inhibition came to 3.38%.

`c1ccc(CN2CCC(Nc3ccccc3)CC2)cc1`: the activity change, negative = inhibition came out at 28.7%. Under `COc1ccc(NC2CCN(C(=O)OC(C)(C)C)CC2)cc1` stands -18.2%.
